# Binding of CDR-mutated scFvs to a peptide of the spike HR2 region

Target: peptide PDVDLGDISGINAS, taken from heptad repeat 2 (HR2) of SARS-CoV-2 spike.

The variants keep the light chain, the linker and the frameworks of Ab-14 (scFv order VH, three GGGGS repeats, VL).
VH: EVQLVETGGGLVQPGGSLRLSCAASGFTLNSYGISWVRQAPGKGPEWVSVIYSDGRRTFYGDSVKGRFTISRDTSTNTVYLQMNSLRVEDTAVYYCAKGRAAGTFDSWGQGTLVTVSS
VL: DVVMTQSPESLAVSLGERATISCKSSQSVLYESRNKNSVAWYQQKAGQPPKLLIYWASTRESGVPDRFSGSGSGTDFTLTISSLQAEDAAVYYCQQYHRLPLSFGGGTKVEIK

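These sequences belong to a second round, designed from the earlier measurements on random variants of the parent. Several design methods are mixed in this list. In AlphaSeq, yeast of one mating type display the scFv and yeast of the other type display the target. Binding brings cells together so that they mate, and sequencing counts the barcode pairs among the diploids. A regression on co-assayed BCL2-family reference pairs converts the normalised counts of each replicate to an apparent Kd. There are six technical replicates.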

Substitutions are numbered in sequence along the VH above, starting at 1 (not Kabat). This list holds designs with at most six substitutions. The Kd shown is the geometric mean over detected replicates; a lower Kd is a better binder. "nd" marks a missing value. The strain was present, yet no cells mated with the target were sequenced in any replicate, which points to weak or no binding.

For T28W/S31D/A101E/S107T, the assay gave 3.2 nM (6 of 6 replicates).
For T28S/S31E/A101L/D106I, the assay gave 84 nM (1 of 6 replicates).
For S31E/T58Y/G103V/D106S/S107Q, the assay gave 190 nM (1 of 6 replicates).
For R56E/G61Q/S107D, the assay gave 66 nM (3 of 6 replicates).
For T28D/S63D/R100Q/A101T, the assay gave 1.2 nM (6 of 6 replicates).
For N30D/R100Q/S107K, the assay gave 12 nM (1 of 6 replicates).
For T28S/S31E/S53A/F59M/G61I, the assay gave 370 pM (6 of 6 replicates).
For T28Q/G61A/S63Q/A101Q, the assay gave 22 nM (6 of 6 replicates).
For N30E/G61S/A102G/S107T, the assay gave 120 nM (5 of 6 replicates).
For G61S/R100Q/A101D/S107T, the assay gave 14 nM (6 of 6 replicates).
For N30D/F105T/D106L, the assay gave nd (0 of 6 replicates).
For S31T/G61I/T104R/D106H, the assay gave nd (0 of 6 replicates).
For T28S/G61C/R100K, the assay gave 110 nM (5 of 6 replicates).
For T28E/G61A/R100K/A101V, the assay gave 1.1 nM (6 of 6 replicates).
For T28D/S31E/R100E, the assay gave 49 nM (6 of 6 replicates).
For T28E/S31E/A101Q/S107T, the assay gave 1.3 nM (6 of 6 replicates).
For N30D/S35N/A102Q/F105D/D106G, the assay gave nd (0 of 6 replicates).
For T28D/D106P/S107K, the assay gave nd (0 of 6 replicates).
For T28N/S31E/G103V/S107Q, the assay gave nd (0 of 6 replicates).
For T28D/S63M/R100E, the assay gave 1.3 nM (5 of 6 replicates).
For T28S/S107K, the assay gave 3.2 nM (6 of 6 replicates).
For N30G/A102P/G103A, the assay gave nd (0 of 6 replicates).
For N30D/S53A/R100E/D106R, the assay gave 1.6 nM (6 of 6 replicates).
For T28S/G61K/R100K/A101E, the assay gave 830 pM (6 of 6 replicates).
For T28H/R56K/G61A/A101T, the assay gave 4.9 nM (6 of 6 replicates).
For T28S/G61A/R100W/A101V, the assay gave 540 pM (6 of 6 replicates).
For G26K/T28D/G61L/R100Q/A101T, the assay gave 48 nM (5 of 6 replicates).
For R56L/G61I/A101T, the assay gave 36 nM (3 of 6 replicates).
For S31D/G33K/S53F/F59Q/G61I/F105G, the assay gave nd (0 of 6 replicates).
For G61H/R100Q, the assay gave 60 nM (5 of 6 replicates).
For F59A/G61H/S107C, the assay gave 3.2 nM (1 of 6 replicates).
For T28S/F59A/R100W, the assay gave 12 nM (6 of 6 replicates).
For R100E/A101V/S107N, the assay gave 190 pM (6 of 6 replicates).
For S31E/A101M/S107V, the assay gave 2.0 nM (6 of 6 replicates).
For F59D/G61D/R100Q/A101L, the assay gave nd (0 of 6 replicates).
For T28D/A101V/D106E, the assay gave 4.0 nM (5 of 6 replicates).
For T28D/F59V/R100K/A101T, the assay gave 510 pM (6 of 6 replicates).
For T28E/S31E/G61H/T104F, the assay gave nd (0 of 6 replicates).
For S31D/G99W/S107D, the assay gave nd (0 of 6 replicates).
For T28Q/S31E/A101L, the assay gave 2.6 nM (6 of 6 replicates).
For T28D/S63T/A101T, the assay gave 6.8 nM (5 of 6 replicates).
For F105I, the assay gave nd (0 of 6 replicates).
For N30E/S63R/R100Q/S107T, the assay gave 46 nM (4 of 6 replicates).
For R56Y/G61M/A102Y, the assay gave nd (0 of 6 replicates).
For R56V/G61A/A101Q, the assay gave 3.8 nM (6 of 6 replicates).
For T28W/S31D/G103L/S107E, the assay gave nd (0 of 6 replicates).
For T28D/S31E/S53A/G61T/R100E/A101T, the assay gave 460 pM (6 of 6 replicates).

Picked from the list: the 7 lowest averages where every replicate gave a value.

changes	Kd (apparent)	detected
R100E/A101V/S107N	190 pM	6/6
T28S/S31E/S53A/F59M/G61I	370 pM	6/6
T28D/S31E/S53A/G61T/R100E/A101T	460 pM	6/6
T28D/F59V/R100K/A101T	510 pM	6/6
T28S/G61A/R100W/A101V	540 pM	6/6
T28S/G61K/R100K/A101E	830 pM	6/6
T28E/G61A/R100K/A101V	1.1 nM	6/6

The authors averaged sequences with at least three values out of six and counted those with two or fewer as poor binders. Background: pairings of all heavy chain designs with three empty control strains gave a value in 1% of cases (median 120 nM, 5th percentile 7.0 nM). Values in that range, when seen in few replicates, are hard to tell from nonspecific mating. Of ten entries with the parent sequence, four were seen in most replicates (averages 2.2 nM to 240 nM), three in one and three in none, so single entries are noisy. Values of this round are not directly comparable with the first-round values of the same sequences.

From the AlphaSeq antibody data of Li et al. 2023 (doi:10.1038/s41467-023-39022-2), copy in the FLAb collection.